Test results as given in patent US4778784A, “Cyclic peptide and method of use for inducing an immunological response to hepatitis B virus” (Baylor College of Medicine, priority 1987, dated 1988).

System: common anti-HBs idiotype (CId)-anti-idiotype reaction
Experiment: Inhibition of the common anti-HBs idiotype binding its anti-idiotype antiserum
Set-up: species or system human
Source text: The second immunochemical tool used to determine the ability of peptide 1 to elicit protective antibody resided with the idiotypic specificity of the anti-HBs antibodies produced by HBV-infected humans. The basic concept of the idiotypic system is illustrated in FIG. 6. The region associated with the variable region (VL and VH) of the immunoglobulin (Ig) molecule and which contains the antigencombining site has been defined by Oudin (Reference 39) as the idiotype of that Ig molecule. An anti-idiotypereagent is produced by injection of a second species, such as rabbits, with specifically purified antibody, e.g., human anti-HBs. The resulting rabbit antiserum is extensively adsorbed with normal human Ig negative for anti-HBs reactivity. The antiidiotype antiserum (with regions) thus recognizes only that region of the IgG molecule (shown as ) which specifically reacts with HBsAg. […] Thus, it is possible that the CId associated with human anti-HBs antibodies may be blocked from reacting with a specific anti-Id reagent by prior incubation with either HBsAg or with peptide 1 if the peptide is antigenically related to HBsAg. […]

Human serum albumin: control inhibitor
Percent Inhibition of the Common Anti-HBs Idiotype Binding Its Anti-Idiotype Antiserum (Concentration 5.0 μg): 0%
Percent Inhibition of the Common Anti-HBs Idiotype Binding Its Anti-Idiotype Antiserum (Concentration 20.0 μg): 0%
